Experimental findings from patent US6515103B1 (priority 1996, dated 2003) are described below.

Some results are limits rather than exact numbers.

Test system in the first series: not given
The settings on record: 37° C.
As for `CC[C@H](C)[C@H](NC(=O)[C@H](CC(C)C)NC(=O)[C@H](CC(C(=O)O)C(=O)O)NC(=O)[C@H](CCC(N)=O)NC(=O)[C@H](CC(N)=O)NC(=O)[C@H](CC(C(=O)O)C(=O)O)NC(=O)[C@H](CCC(N)=O)NC(=O)[C@H](CC(C)C)NC(=O)[C@H](CC(C(=O)O)C(=O)O)NC(=O)[C@H](C)NC(=O)[C@H](CCC(=O)O)NC(=O)CN)C(=O)N[C@@H](CCCNC(=N)N)C(=O)N[C@@H](CC(C(=O)O)C(=O)O)C(=O)N[C@@H](CCCCN)C(=O)N[C@@H](CO)C(=O)N[C@@H](CC(N)=O)C(N)=O` [A^3], the “stability in biological media” value is listed as “stable”.

For another series, the target named is NMDA receptor. In kind it is binding.
Settings: not given
For `CC[C@H](C)[C@H](NC(=O)[C@H](CC(C)C)NC(=O)[C@H](CCC(=O)O)NC(=O)[C@H](CCC(N)=O)NC(=O)[C@H](CC(N)=O)NC(=O)[C@H](CCC(=O)O)NC(=O)[C@H](CCC(N)=O)NC(=O)[C@H](CC(C)C)NC(=O)[C@H](CC(C(=O)O)C(=O)O)NC(=O)[C@H](CC(C(=O)O)C(=O)O)NC(=O)[C@H](CCC(=O)O)NC(=O)CN)C(=O)N[C@@H](CCCNC(=N)N)C(=O)N[C@@H](CCC(=O)O)C(=O)N[C@@H](CCCCN)C(=O)N[C@@H](CO)C(=O)N[C@@H](CC(N)=O)C(N)=O` [E^7,10,14], the half-maximal inhibitory concentration (IC50) (as a rule, the point on the concentration scale where inhibition reaches its midpoint) is no less than 20000 nM.

Molecule `CC[C@H](C)[C@H](NC(=O)[C@H](CC(C)C)NC(=O)[C@H](C)NC(=O)[C@H](CCC(N)=O)NC(=O)[C@H](CC(N)=O)NC(=O)[C@H](C)NC(=O)[C@H](CCC(N)=O)NC(=O)[C@H](CC(C)C)NC(=O)[C@H](CC(C(=O)O)C(=O)O)NC(=O)[C@H](CC(C(=O)O)C(=O)O)NC(=O)[C@H](CCC(=O)O)NC(=O)CN)C(=O)N[C@@H](CCCNC(=N)N)C(=O)N[C@@H](C)C(N)=O` [(A^7,10,14)1-14] showed an IC50 of 232 nM.

On to `CC[C@H](C)[C@H](NC(=O)[C@H](CC(C)C)NC(=O)[C@H](C)NC(=O)[C@H](CCC(N)=O)NC(=O)[C@H](CC(N)=O)NC(=O)[C@H](C)NC(=O)[C@H](CCC(N)=O)NC(=O)[C@H](CC(C)C)NC(=O)[C@H](CC(C(=O)O)C(=O)O)NC(=O)[C@H](CC(C(=O)O)C(=O)O)NC(=O)[C@H](CCC(=O)O)NC(=O)CN)C(=O)N[C@@H](CCCNC(=N)N)C(=O)N[C@@H](C)C(=O)N[C@@H](CCCCN)C(N)=O` [(A^7,10,14)1-15], for which 34 nM corresponded to half-maximal inhibition (IC50).

`CC[C@H](C)[C@H](NC(=O)[C@H](CC(C)C)NC(=O)[C@H](C)NC(=O)[C@H](CCC(N)=O)NC(=O)[C@H](CC(N)=O)NC(=O)[C@H](C)NC(=O)[C@H](CCC(N)=O)NC(=O)[C@H](CC(C)C)NC(=O)[C@H](CC(C(=O)O)C(=O)O)NC(=O)[C@H](CC(C(=O)O)C(=O)O)NC(=O)[C@H](CCC(=O)O)NC(=O)CN)C(=O)N[C@@H](CCCNC(=N)N)C(=O)N[C@@H](C)C(=O)N[C@@H](CCCCN)C(=O)N[C@@H](CO)C(N)=O` [(A^7,10,14)1-16] had a concentration for half-maximal inhibition (IC50) of 37 nM.

Turning to `CC[C@H](C)[C@H](NC(=O)[C@H](CC(C)C)NC(=O)[C@H](C)NC(=O)[C@H](CCC(N)=O)NC(=O)[C@H](CC(N)=O)NC(=O)[C@H](C)NC(=O)[C@H](CCC(N)=O)NC(=O)[C@H](CC(C)C)NC(=O)[C@H](CC(C(=O)O)C(=O)O)NC(=O)[C@H](CC(C(=O)O)C(=O)O)NC(=O)[C@H](CCC(=O)O)NC(=O)CN)C(=O)N[C@@H](CCCNC(=N)N)C(=O)N[C@@H](C)C(=O)N[C@@H](CCCCN)C(=O)N[C@@H](CO)C(=O)N[C@@H](CC(N)=O)C(N)=O` [A^7,10,14], 88 nM corresponded to half-maximal inhibition (IC50).

Take `CC[C@H](C)[C@H](NC(=O)[C@H](CC(C)C)NC(=O)[C@H](CC(C(=O)O)C(=O)O)NC(=O)[C@H](CCC(N)=O)NC(=O)[C@H](CC(N)=O)NC(=O)[C@H](Cc1ccc(O)cc1)NC(=O)[C@H](CCC(N)=O)NC(=O)[C@H](CC(C)C)NC(=O)[C@H](CC(C(=O)O)C(=O)O)NC(=O)[C@H](CC(C(=O)O)C(=O)O)NC(=O)[C@H](CCC(=O)O)NC(=O)CN)C(=O)N[C@@H](CCCNC(=N)N)C(=O)N[C@@H](CC(C(=O)O)C(=O)O)C(=O)N[C@@H](CCCCN)C(=O)N[C@@H](CO)C(=O)N[C@@H](CC(N)=O)C(N)=O` [Y^3]: half-maximal inhibition (IC50) required 960 nM.
